Laboratory results: patent publication US9447108B2 (SZEGEDI TUDOMÁNYEGYETEM, priority 2013, dated 2016)

Amino acid sequences for entries named in this document (tags omitted).
UniProt P33535, whole entry: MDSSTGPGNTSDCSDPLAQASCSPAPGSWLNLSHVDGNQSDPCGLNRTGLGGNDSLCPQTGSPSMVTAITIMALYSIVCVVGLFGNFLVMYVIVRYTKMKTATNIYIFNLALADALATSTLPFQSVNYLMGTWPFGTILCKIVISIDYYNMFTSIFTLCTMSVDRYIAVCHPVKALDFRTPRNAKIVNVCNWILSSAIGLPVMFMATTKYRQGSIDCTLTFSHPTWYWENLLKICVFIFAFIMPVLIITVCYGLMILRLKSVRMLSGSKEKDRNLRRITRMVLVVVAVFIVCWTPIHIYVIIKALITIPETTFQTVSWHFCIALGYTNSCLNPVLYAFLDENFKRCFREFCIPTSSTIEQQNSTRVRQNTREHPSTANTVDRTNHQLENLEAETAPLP

Biological target: T1, μ-opioid receptors (Rattus norvegicus, UniProt P33535)
T1 construct: A crude membrane fraction was prepared from Wistar rat brains and spinal cords; from tissue; host or cells: Wistar rat brain (without cerebellum), crude membrane fraction
Assay: Receptor binding assay, [3H]DAMGO displacement in rat brain membranes

C[C@@H](NC(=O)[C@@H](N)Cc1ccc(O)cc1)C(=O)NCC(=O)N(C)[C@@H](Cc1ccccc1)C(=O)NCCO [DAMGO, (2S)-2-[[2-[[(2R)-2-[[(2S)-2-amino-3-(4-hydroxyphenyl)propanoyl]amino]propanoyl]amino]acetyl]-methylamino]-N-(2-hydroxyethyl)-3-phenylpropanamide, reference compound]
Ki: 1 ± 0.2 nM
